In article PMC11443169 (Life Science Alliance, 2024):

Test system: rat hippocampus

Aβ4F-42: amino-terminal variant of Aβx-42 starting with Phe at position 4, internally radiolabeled
Half-life (in vivo half-lives of Aβx-42): 10.51 min

Aβ3E-42: amino-terminal variant of Aβx-42 starting with Glu at position 3, internally radiolabeled
Half-life (in vivo half-lives of Aβx-42): 12.51 min

Aβ2A-42: amino-terminal variant of Aβx-42 starting with Ala at position 2, internally radiolabeled
Half-life (in vivo half-lives of Aβx-42): 10.77 min
